# Measured affinities in a library of Ab-14 light chain variants

Values reported by Li et al. 2023, doi:10.1038/s41467-023-39022-2 (FLAb copy).

Target peptide (SARS-CoV-2 spike, HR2 region): PDVDLGDISGINAS

The variants keep the heavy chain, the linker and the frameworks of Ab-14 (scFv order VH, a (GGGGS)3 linker, VL).
VH: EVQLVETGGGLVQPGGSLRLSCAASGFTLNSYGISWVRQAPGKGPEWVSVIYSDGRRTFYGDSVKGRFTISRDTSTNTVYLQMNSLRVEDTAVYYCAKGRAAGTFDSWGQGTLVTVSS
VL: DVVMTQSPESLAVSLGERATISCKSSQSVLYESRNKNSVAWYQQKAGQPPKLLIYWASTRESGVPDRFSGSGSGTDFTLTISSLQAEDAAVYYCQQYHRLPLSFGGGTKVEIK

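Phage display of a naive human antibody library on the peptide gave the parent. The variants were designed computationally from a first round of random CDR variants and then made and measured. Their group label is 14L_GP_HC (GP: Gaussian process model; HC: hill climbing; a sequence that several methods proposed may carry one label only). The scFvs were displayed on barcoded MATa yeast, the peptide on MATalpha yeast. Binding brings cells together so that they mate, and sequencing counts the barcode pairs among the diploids. A regression on co-assayed BCL2-family reference pairs converts the normalised counts of each replicate to an apparent Kd. Each pool was mated in six replicate cultures.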

Each variant is given by its three light chain CDRs, as the data file delimits them; those of the parent are KSSQSVLYESRNKNSVA, WASTRES, QQYHRLPLS. Numbers give log10(Kd / nM), so 0 is 1 nM and 3 is 1 µM. Smaller is tighter. Averages over replicates are reported, and they cover detected replicates only. Nonspecific signal, from three strains lacking the peptide, appeared in 4% of pairings of all light chain designs, centred on 2.64 (5% of these signals below 1.59); values are not corrected for it. Also given: how often the same scFv was detected with the empty control strains. The range of this assay differs from that of the first round, and the authors advise against merging the two. The authors' rule: three or more of the six replicates give a measured affinity, fewer mean a poor binder.

The variant KSSWSVLTESRNKNSVA, DASTRES, QQYHRLPLS gave 0.12, 0.20, 0.24, -0.35, -0.42, -0.34 (mean -0.09; controls 0 of 18).
The variant KVSWSYLYESRNKNSVA, EASTREQ, QQYHRLPLS gave 0.25, 0.19, -0.12, 0.03, -0.12, 0.45 (mean 0.11; controls 0 of 18).
The variant KQSQQPLYESRNKNSVA, DASTRES, QQYHRLPLS gave -0.22, -0.35, -0.36, -0.50, -0.65, -0.49 (mean -0.43; controls 1 of 18).
The variant SLMQSVLYESRNKNSVA, NASLRED, QQYHRLPLS gave -0.30, -0.30, -0.46, -0.42, -0.54, -0.37 (mean -0.40; controls 0 of 18).
The variant KSSWSVLFESRNKNSVA, DASTRSS, QQYHRLPLS gave 0.39, 0.34, 0.30, 0.18, 0.27, 0.35 (mean 0.31; controls 5 of 18).
The variant HLSWVMLYESRNKNSVA, NASTRES, QQYHRLPLS gave 0.14, -0.05, -0.05, -0.13, -0.13, 0.07 (mean -0.03; controls 2 of 18).
The variant KQSQSVLMESVNKNSVA, DASTRES, QQYHRLPLS gave -0.24, -0.12, -0.12, -0.17, 0.04, 0.07 (mean -0.09; controls 1 of 18).
The variant KQSQSVLGESRNKNSVA, DASTRES, QQYHRLPLD gave 0.26, 0.58, 0.49, 0.10, 0.34, 0.41 (mean 0.36; controls 0 of 18).
The variant KSSQSWLYESRNKNSVA, GASQRES, QQYHRLPLS gave -0.31, -0.38, -0.27, -0.67, -0.36, -0.30 (mean -0.38; controls 1 of 18).
The variant KVSQSVKMESRNKNSVA, DASTRES, QQYHRLPLS gave 0.29, 0.16, 0.15, -0.04, -0.04, 0.09 (mean 0.10; controls 0 of 18).
The variant KSSASYLEESRNKNSVA, EASTRES, QQYHRLPLS gave -0.15, -0.36, -0.44, -0.47, -0.40, -0.21 (mean -0.34; controls 0 of 18).
The variant KSSFSYLYESMNKNSVA, NGSTRES, QQYHRLPLS gave 0.21, -0.30, -0.21, -0.43, -0.41, -0.43 (mean -0.26; controls 1 of 18).
The variant KSSISYLPEKRNKNSVA, EASTRES, QQYHRLPLS gave -0.59, 0.00, -0.93, -0.44, -0.15, -0.42 (mean -0.42; controls 0 of 18).
The variant KQSQSVLYESRNKNSVA, HASTRES, QQYHRLPLS gave 1.11, 0.56, 0.20, -0.06, 0.02, 0.58 (mean 0.40; controls 0 of 18).
The variant KFSQWELYESRTKNSVA, NASTRES, QQYHRLPLS gave 0.93, 0.28, 0.24, 0.05, -0.03, 0.01 (mean 0.25; controls 1 of 18).
The variant KLLWSVLYESNNKNSVA, HASTREQ, QQYHRLPLS gave 0.88, 0.90, 0.63, 0.48, 1.33, 1.07 (mean 0.88; controls 1 of 18).
The variant KSSQSWLYESRNKNSVA, GASLREV, QQYHRLPLS gave -0.01, 0.00, 0.06, -0.30, -0.09, 0.09 (mean -0.04; controls 1 of 18).
The variant KSSQSVLMESRNCNSVA, DASTRES, QQYHRLPLS gave 0.26, -0.06, 0.30, -0.09, 0.01, 0.09 (mean 0.08; controls 1 of 18).
The variant KLYQSTLYESRNKNSVA, NASTRLS, QQYHRLPLS gave 1.05, 0.54, 0.15, 0.12, 0.05, 0.14 (mean 0.34; controls 0 of 18).
The variant KMSQGVLYESRNKNSVA, GGSTRES, QQYHRLPLS gave -0.09, -0.13, -0.10, -0.35, -0.26, -0.22 (mean -0.19; controls 1 of 18).
The variant KLPQQTLYETRNKNSVA, TASTREE, QQYHRLPLS gave 0.96, 0.75, 0.35, 0.58, 0.95, 0.81 (mean 0.73; controls 1 of 18).
The variant KSLWSVLYESNNKNSVA, HASTRMD, QQYHRLPLS gave 0.60, 0.91, 0.88, 0.39, 0.80, 0.54 (mean 0.69; controls 2 of 18).
The variant KSSQSELYESRNFNSVA, GASTRES, QQYHRLPLS gave 0.55, 0.22, 0.23, -0.12, 0.16, 0.02 (mean 0.18; controls 0 of 18).
The variant KSMQGVLYESRNKNHVA, GASTRES, QQYHRLPLS gave 0.33, 0.26, 0.03, 0.02, 0.16, 0.49 (mean 0.22; controls 1 of 18).
The variant KSSQGVLYESRNKNSVA, GASTRES, QQYHRLPLH gave 1.13, 0.37, 0.23, 0.21, 0.27, 0.64 (mean 0.48; controls 2 of 18).
The variant KSGQGVLQESRNWNSVA, GASTRES, QQYHRLPLS gave 0.12, -0.10, -0.37, -0.36, -0.08, -0.08 (mean -0.14; controls 1 of 18).
The variant KSSQSWEYESRNKNSVA, GASTRES, QQYHRLPLS gave -0.30, -0.35, -0.45, -0.48, -0.54, -0.41 (mean -0.42; controls 0 of 18).
The variant KSSWSYLYESRNKNSVA, EASTREQ, QQYHRLPLS gave 1.52, 1.22, 1.50, 0.84, 1.50, 1.22 (mean 1.30; controls 1 of 18).
The variant KLLQSVLYESRDKNSVA, HASTRLS, QQYHRLPLS gave -0.12, 0.08, 0.45, 0.13, 0.44, 0.27 (mean 0.21; controls 0 of 18).
The variant KFSQSVLMESTTKNSVA, NASTRES, QQYHRLPLS gave 0.31, 0.28, 0.17, 0.23, 0.28, 0.29 (mean 0.26; controls 0 of 18).
The variant KVSQSVLYESGNKNSVA, NASSRES, QQYHRLPLS gave 0.08, 0.04, -0.08, -0.11, 0.11, -0.04 (mean 0.00; controls 1 of 18).
The variant KSQQSQEYESRNKNSVA, HASTRED, QQYHCLPLS gave 1.05, 0.97, 0.84, 0.81, 1.48, 1.50 (mean 1.11; controls 1 of 18).
The variant KMSQGVLYESRNKNSVA, GASTRES, QQYHRLPLS gave 0.15, -0.29, -0.14, -0.49, -0.17, -0.25 (mean -0.20; controls 4 of 18).
The variant KFSQSVLYESRTKNSVA, NASTRES, QWYERLPLS gave 0.72, 1.04, 0.57, 0.77, 0.91, 1.17 (mean 0.86; controls 0 of 18).
The variant KLLQSTLYESRNKNSVA, DASTRES, QQYHRLPLS gave 0.52, 0.02, -0.05, 0.28, 0.19, 0.46 (mean 0.24; controls 1 of 18).

4 of these entries, quoted again:

For KQSQSVLYESRNKNSVA, HASTRES, QQYHRLPLS, the assay gave 1.11, 0.56, 0.20, -0.06, 0.02, 0.58 (mean 0.40; controls 0 of 18).
For KSSQSELYESRNFNSVA, GASTRES, QQYHRLPLS, the assay gave 0.55, 0.22, 0.23, -0.12, 0.16, 0.02 (mean 0.18; controls 0 of 18).
For KSSQSWLYESRNKNSVA, GASLREV, QQYHRLPLS, the assay gave -0.01, 0.00, 0.06, -0.30, -0.09, 0.09 (mean -0.04; controls 1 of 18).
For KSSWSVLTESRNKNSVA, DASTRES, QQYHRLPLS, the assay gave 0.12, 0.20, 0.24, -0.35, -0.42, -0.34 (mean -0.09; controls 0 of 18).